This is an account of results in patent publication US20090325959A1 (priority 2008, published 2009).

Sequences of proteins named here, by UniProt entry; tags and fusion partners are left off. Residues count along the entry.
UniProt O75116, 11-552 limits assumed: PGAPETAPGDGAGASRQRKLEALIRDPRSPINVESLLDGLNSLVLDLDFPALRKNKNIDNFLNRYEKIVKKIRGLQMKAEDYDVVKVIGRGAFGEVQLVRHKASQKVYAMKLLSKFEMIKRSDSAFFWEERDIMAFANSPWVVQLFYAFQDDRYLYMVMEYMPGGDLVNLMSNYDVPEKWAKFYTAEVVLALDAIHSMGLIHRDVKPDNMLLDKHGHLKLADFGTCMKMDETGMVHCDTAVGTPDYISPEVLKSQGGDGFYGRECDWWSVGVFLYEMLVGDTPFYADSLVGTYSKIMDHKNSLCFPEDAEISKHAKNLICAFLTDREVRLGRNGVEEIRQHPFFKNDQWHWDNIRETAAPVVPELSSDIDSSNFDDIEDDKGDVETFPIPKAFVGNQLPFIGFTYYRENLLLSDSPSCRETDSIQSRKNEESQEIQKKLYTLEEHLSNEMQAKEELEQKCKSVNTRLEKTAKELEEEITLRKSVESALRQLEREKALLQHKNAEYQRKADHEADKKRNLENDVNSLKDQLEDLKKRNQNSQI
UniProt Q13464, 17-535 limits assumed: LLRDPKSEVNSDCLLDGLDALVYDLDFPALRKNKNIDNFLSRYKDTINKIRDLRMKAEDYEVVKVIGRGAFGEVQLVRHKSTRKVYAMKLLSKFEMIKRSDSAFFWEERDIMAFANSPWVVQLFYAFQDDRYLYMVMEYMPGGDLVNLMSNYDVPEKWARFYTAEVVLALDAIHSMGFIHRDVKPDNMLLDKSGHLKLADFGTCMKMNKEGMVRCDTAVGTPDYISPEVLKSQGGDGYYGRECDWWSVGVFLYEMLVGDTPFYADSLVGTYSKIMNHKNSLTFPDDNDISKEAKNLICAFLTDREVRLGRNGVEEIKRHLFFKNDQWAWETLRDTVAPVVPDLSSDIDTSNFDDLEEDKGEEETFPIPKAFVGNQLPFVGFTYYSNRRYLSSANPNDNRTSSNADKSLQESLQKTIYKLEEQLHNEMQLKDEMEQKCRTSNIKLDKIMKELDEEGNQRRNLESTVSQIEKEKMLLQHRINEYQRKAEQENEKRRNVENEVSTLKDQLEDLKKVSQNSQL

Like-named read-outs stand apart in the source and are kept apart here.

The target in one experiment is T1, ROCK2 (Homo sapiens, UniProt O75116).
T1 construct: purchased Upstate/Chemicon 14-451
The experiment is described as follows: Rho kinase inhibition assay (IMAP fluorescence polarization), ROCK2.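 Further: kinase reaction started with 10 µM ATP and run 60 min at room temperature, then phosphorylated substrate captured on IMAP beads for 30 min and fluorescence polarization read in mP.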 The experiment is classed as biochemical. (In fluorescence polarisation assays a small probe gives low polarisation when free and higher when bound to something large.)

In another experiment the target is T2, ROCK1 (Homo sapiens, UniProt Q13464).
T2 construct: purchased Upstate/Chemicon 14-601
The experiment is described as follows: Rho kinase inhibition assay (IMAP fluorescence polarization), ROCK1.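 Further: kinase reaction run 60 min at room temperature, then phosphorylated substrate captured on IMAP beads for 30 min, with fluorescence polarization read in mP.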 In kind it is biochemical. Particulars: Avg, 10 μM ATP.

Setting [1] is: 10 μM ATP, read-out: ROCK2 Ki, Avg.

In general, Ki refers to the dissociation constant of the complex between target and ligand, obtained from inhibition or displacement. Consider `Cc1c(CN2CC[C@@H](Nc3cccc4cnccc34)C2)cccc1NS(=O)(=O)N(C)C` [Compound 2.079], for which the Ki at ROCK2 (setting [1]) was 2.3 nM; at ROCK2 (average Ki, read-out: ROCK2 Ki) it was 2.3 nM. In turn, `NCc1ccc(CN2CCC[C@@H](Nc3ccc4[nH]ncc4c3)C2)cc1` [Compound 1.188, (R)-N-(1-(4-(aminomethyl)benzyl)piperidin-3-yl)-1H-indazol-5-amine] displayed a Ki at ROCK1 of 3470 nM. As for `Cc1ccc(CN2CC[C@@H](Nc3cccc4cnccc34)C2)cc1NS(=O)(=O)N(C)C` [Compound 2.077], the Ki on ROCK2 (setting [1]) came out at 5 nM; on ROCK2 (average Ki, read-out: ROCK2 Ki) it was 5 nM. In the case of `Cc1c(CN2CCC[C@H](Nc3ccc4[nH]ncc4c3)C2)cccc1NS(=O)(=O)N(C)C` [Compound 1.275], the Ki came out at 14.1 nM at ROCK2 (setting [1]) and 14.1 nM on ROCK2 (average Ki, read-out: ROCK2 Ki). Turning to `CN(C)S(=O)(=O)Nc1cccc(CN2CCC[C@H](Nc3ccc4[nH]ncc4c3)C2)c1` [Compound 1.261], the Ki at ROCK2 (setting [1]) was determined as 14.8 nM; on ROCK2 (average Ki, read-out: ROCK2 Ki) it was 14.8 nM. Turning to `Clc1ccc(CN2CC[C@@H](Nc3ccc4[nH]ncc4c3)C2)cc1` [Compound 1.241, (R)-N-(1-(4-chlorobenzyl)pyrrolidin-3-yl)-1H-indazol-5-amine], the inhibition constant (Ki) on ROCK2 (setting [1]) came out at 21 nM. For the compound `COc1c(CN2CC[C@@H](Nc3cccc4cnccc34)C2)cccc1NS(=O)(=O)N(C)C` [Compound 2.097], the Ki stood at 2.8 nM on ROCK2 (setting [1]) and 2.8 nM on ROCK2 (average Ki, read-out: ROCK2 Ki).
